# Source: PubChem (National Center for Advancing Translational Sciences (NCATS))
# The list is not random: actives were taken first. Their share in the collection is about 0.92%.
# uPA surface inh: blocks generation of uPA at the cell surface; cell surface uPA generation assay, qHTS; Potency, µM (highest dose often 38.3 µM), for inactives: top-dose activity change, negative = inhibition, usual class: inhibitors; 0.31% of 330,000 active; AID 540303; active = well fitted inhibition curve with a large enough effect; inconclusive = small, poorly fitted or top-dose-only effect; inactive = no such curve, though single readings can be large or run the other way; tested in mouse RAW 264.7 cells; note: potency is the fitted concentration of half-maximal effect; % is set by controls: 0 for no effect and ±100 for the full control effect; nearly all actives have a fitted effect of over 55% in size
# Giardia killer: Giardia lamblia killing; Giardia lamblia trophozoite viability; activity change, % at 7.66 µM, hits read low; 0.15% of 340,000 active; AID 540267; in the data active = activity change below about -80%; inconclusive = between about -30% and that limit;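 note: parasites exposed to compound for two days anaerobically before the ATP read; % is set by controls: 0 for no effect and ±100 for the full control effect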
#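 Each well holds 100 Giardia trophozoites and compound. After two days (48 hrs) at 37 deg C in anaerobic conditions, ATP is quantified by luminescence.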
# miR-21 reporter: raises the signal of a miR-21 reporter | HeLa miR-21 FLuc reporter, luciferase, 48 h | Potency, µM (doses to about 38.3 µM), for the others: at the highest dose reporter change, positive = more light | 340,000 tested, under 10 active | AID 2288; active = well fitted rising curve with a large enough effect; inconclusive = small, poorly fitted or top-dose-only effect; inactive = no such curve, though single readings can be large or run the other way;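 also: % of control where 0% means no effect; miR-21 action dims this reporter so a rising signal means less miR-21 action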
#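 HeLa cells endogenously expressing miR-21, stably carrying CMV-driven firefly luciferase with a downstream miR-21 binding site, 2000 cells/well. Titrations up to approximately 40 uM, 48 hours; luciferase luminescence read.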
# B2AR arrestin: beta2AR (human) beta-arrestin recruitment activity; beta-arrestin recruitment to beta2AR, cell-based reporter; Potency, µM (highest dose often 46.1 µM), without a hit: top-dose activation, usual class: activators; 0.02% of 330,000 active;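 note: potency is the fitted concentration of half-maximal effect; 0% = DMSO controls and full agonism = EC100 isoproterenol or metaproterenol; nearly all actives have a fitted effect of over 65% in size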
# Coupling enz: coupling enzyme interference in Giardia aldolase counter-screen; coupling enzyme system counterscreen, AmpLite Red fluorescence; activity change, negative = inhibition, % at 58.2 µM, hits read low; 0.67% of 290,000 active; AID 2472; in the data active = activity change below about -30%; note: % is set by controls: 0 for no effect and ±100 for the full control effect
#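 Compounds tested against the coupling enzymes alone at 57.5 uM final; readout was AmpLite Red fluorescence (525/598 nm) after 20 min at RT.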
# GALK inh: inhibitors of human galactokinase; P51570; AID 1868; Potency, µM (titrated, usually from 57.5 µM), for the others: at the top dose activity change, negative = inhibition, most hits filed as inhibitors; Purified GALK, Kinase-Glo residual ATP luminescence; 0.007% of 270,000 active; note: potency is the fitted concentration of half-maximal effect; % is set by controls: 0 for no effect and ±100 for the full control effect
#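 The enzyme phosphorylates galactose (100 uM) using ATP (35 uM); inhibition is detected as higher residual ATP, quantified by bioluminescence after 1 h reaction at room temperature, pH 8.0.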
# Starred values were filed as active, the others as inactive; ? = inconclusive; . = not tested or not shown. Unless noted, calls come from the whole dose curve; as a rule, active = well fitted curve in the direction sought with a large enough effect; inconclusive = small, poorly fitted or top-dose-only effect, or another doubt; inactive = no such curve, though single readings can be large; an effect the other way counts as inactive or inconclusive.
nr	Molecule	uPA surface inh	Giardia killer	miR-21 reporter
1	Cc1cc(C)c(S(=O)(=O)/N=C2\C=C(NS(=O)(=O)c3ccccc3)C(=O)c3ccccc32)c(C)c1	4.1%	13.9	0.6%
2	Cc1cc(C)c(S(=O)(=O)/N=C2/C=C(SCC(=O)O)C(=O)c3ccccc32)cc1C	-0.9%	-10.5	14.6%
3	CCn1c(C)nc2cc(-c3nc4n(n3)Cc3ccccc3-4)ccc21	-10.0%	-104.7*	?
4	CC(=O)c1ccc(S(=O)(=O)N2CCn3cccc3C2c2ccccc2F)cc1 (stereo unspecified)	.	.	-3.3%
5	Cc1ccc2c(c1)C(O)(c1c(C)[nH]c3ccccc13)C(=O)N2 (stereo unspecified)	5.2%	5.2	-1.8%
6	Cc1[nH]c2ccccc2c1C1(O)C(=O)N(C(C)C)c2ccccc21 (stereo unspecified)	-1.9%	-4.6	1.2%
7	CCCC[n+]1ccn(C2=C([O-])c3ccccc3C(=O)/C2=N\S(=O)(=O)c2ccc(Cl)cc2)c1	?	-2.4	1.8%
8	O=C(Nc1nc(-c2ccccn2)cs1)c1ccc2c(c1)OCCO2	2.51µM*	-28.1	2.4%
9	Cc1nc2c(c(=O)[nH]1)CSCC2	.	.	.
10	CC(c1ccccc1)N1CCn2c(nc3cc(NC(=O)c4cccs4)ccc32)C1 (stereo unspecified)	-12.6%	-6.9	-6.5%
11	CC(c1ccccc1)N1CCn2c(nc3cc(NC(=O)NC4CCCCC4)ccc32)C1 (stereo unspecified)	.	2.4	-34.2%
12	Cc1ccc(S(=O)(=O)N(C(=O)c2ccncc2)c2ccc(OC(=O)c3ccncc3)c3ccccc23)c(C)c1	-12.0%	11.2	?

nr	B2AR arrestin	Coupling enz	GALK inh
1	-0.4%	-19.6	5.4%
2	0.0%	-45.7*	-0.4%
3	-2.0%	-14.6	10.0%
4	.	.	.
5	0.0%	-34.6*	0.3%
6	0.2%	-25.8	-3.2%
7	0.3%	-45.5*	-3.8%
8	4.2%	-5.7	1.3%
9	.	-0.2	.
10	0.3%	-2.9	-0.4%
11	-0.8%	-46.1*	2.2%
12	-0.2%	-11.8	-5.1%

# Additional results:
nr	Molecule	uPA surface inh	Giardia killer	miR-21 reporter
13	CC(=O)Oc1ccc(N(C(C)=O)S(=O)(=O)c2ccc(C)cc2C)c2ccccc12	10µM*	5.0	?
14	CCOC(=O)c1c(N)sc(C(=O)Nc2ccccc2)c1C	7.94µM*	?	-17.2%
15	CCOC(=O)c1sc(N)c(C(N)=O)c1C	-1.5%	35.6	-7.2%
16	CCOC(=O)c1c(N)sc(C(=O)Nc2ccccc2F)c1C	?	?	-36.4%
17	CCOC(=O)c1c(N)sc(C(N)=O)c1C	-2.6%	-5.8	-14.1%
18	Cc1ccc(Cl)cc1N1CCN(C(=O)c2ccc3c(c2)CCN3S(=O)(=O)c2ccccc2)CC1	.	.	29.7%
19	Oc1c(Br)cc(Br)cc1CNc1ccc(F)cc1	3.5%	-1.5	-7.6%
20	Oc1c(Br)cc(Br)cc1CNc1cnc2ccccc2c1	-2.8%	3.6	-8.6%
21	Cc1ccc(NC(=O)CN2c3cccc4cccc(c34)S2(=O)=O)cc1	-5.1%	-1.3	.
22	COc1ccc(NC(=O)CN2c3cccc4cccc(c34)S2(=O)=O)cc1	9.2%	-5.2	-6.7%
23	Cc1cc(C(=O)CN2c3cccc4cccc(c34)S2(=O)=O)c(C)n1C	2µM*	3.1	.
24	COCC(C)n1c(C)cc(C(=O)CN2c3cccc4cccc(c34)S2(=O)=O)c1C (stereo unspecified)	9.5%	-8.4	.

nr	B2AR arrestin	Coupling enz	GALK inh
13	-1.0%	-0.1	-0.9%
14	-1.0%	2.5	3.8%
15	0.0%	-33.2*	9.6%
16	0.0%	-0.8	-0.6%
17	0.1%	6.0	0.8%
18	.	.	.
19	-0.1%	-33.1*	-3.6%
20	-0.5%	-3.4	6.0%
21	8.3%	.	.
22	0.4%	-30.9*	-1.7%
23	0.1%	.	.
24	0.1%	.	.

# Record cards, as listed above. Values in the order: uPA surface inh	Giardia killer	miR-21 reporter	B2AR arrestin	Coupling enz	GALK inh
# Results for CCOC(=O)c1c(N)sc(C(=O)Nc2ccccc2F)c1C → ?	?	-36.4%	0.0%	-0.8	-0.6%
# Results for CCOC(=O)c1sc(N)c(C(N)=O)c1C → -1.5%	35.6	-7.2%	0.0%	-33.2*	9.6%
# Results for COCC(C)n1c(C)cc(C(=O)CN2c3cccc4cccc(c34)S2(=O)=O)c1C (stereo unspecified) → 9.5%	-8.4	.	0.1%	.	.

# Additional structures.
nr	Molecule	uPA surface inh	Giardia killer	miR-21 reporter
25	O=C1c2cccc([N+](=O)[O-])c2C(=O)N1C1CCCCC1	0.4%	-10.7	1.0%
26	Cc1c(Cl)cccc1N1C(=O)C(N2C(=O)c3cccc([N+](=O)[O-])c3C2=O)C1c1cccs1 (stereo unspecified)	-5.5%	5.7	-3.1%
27	COc1ccccc1CNc1ccc(-c2nc(-c3ccccn3)no2)cc1[N+](=O)[O-]	.	.	-0.7%
28	Oc1ccc(-c2nc3ccccc3s2)cc1	6.31µM*	-13.4	-5.1%
29	COc1ccc(-c2nc3ccccc3s2)cc1	3.55µM*	?	1.8%

nr	B2AR arrestin	Coupling enz	GALK inh
25	-0.6%	-2.0	7.7%
26	-0.1%	-41.6*	.
27	.	.	.
28	0.5%	0.6	.
29	-0.9%	-4.0	15.0%
